Test results reported in patent US20160052983A1.

Target: GLP-1 receptor (DiscoveRx PathHunter eXpress GLP-1 receptor cAMP assay cells) (UniProt P43220)
Experiment: cell-based or functional assay

- GLP-1 receptor cAMP assay (DiscoveRx PathHunter eXpress), EC50: 0.07 nM
Substance: unmodified exendin-4 (from UniProt P26349) (peptide)
